In assay [1] the target is TYK2 JH2 domain (Homo sapiens (Human), UniProt P29597). Kind of assay: TYK2 JH2 NanoBRET assay. The format is binding. The note with it: read-out: TYK2 IC50, Table 20.
The target in assay [2] is human JAK2 (Homo sapiens (Human), UniProt O60674). Nature of the assay: JAK2 TR-FRET kinase assay. The note with it: read-out: JAK2 IC50, JAK2 0.025 nM. For orientation: Time-resolved FRET reads energy transfer from a long-lived donor to a nearby acceptor.

Protein sequences, listed by entry. Tags and fused reporters are not part of them. Residues count along the entry.
UniProt P29597, 589-875 limits assumed: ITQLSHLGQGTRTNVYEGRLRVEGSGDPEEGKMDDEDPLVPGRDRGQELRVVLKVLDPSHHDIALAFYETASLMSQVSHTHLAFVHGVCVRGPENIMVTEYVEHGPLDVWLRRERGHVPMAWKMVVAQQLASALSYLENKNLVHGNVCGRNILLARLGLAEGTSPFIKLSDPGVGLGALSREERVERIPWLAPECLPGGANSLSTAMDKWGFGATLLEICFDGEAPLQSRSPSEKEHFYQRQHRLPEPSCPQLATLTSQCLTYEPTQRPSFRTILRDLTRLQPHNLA
UniProt O60674, whole entry: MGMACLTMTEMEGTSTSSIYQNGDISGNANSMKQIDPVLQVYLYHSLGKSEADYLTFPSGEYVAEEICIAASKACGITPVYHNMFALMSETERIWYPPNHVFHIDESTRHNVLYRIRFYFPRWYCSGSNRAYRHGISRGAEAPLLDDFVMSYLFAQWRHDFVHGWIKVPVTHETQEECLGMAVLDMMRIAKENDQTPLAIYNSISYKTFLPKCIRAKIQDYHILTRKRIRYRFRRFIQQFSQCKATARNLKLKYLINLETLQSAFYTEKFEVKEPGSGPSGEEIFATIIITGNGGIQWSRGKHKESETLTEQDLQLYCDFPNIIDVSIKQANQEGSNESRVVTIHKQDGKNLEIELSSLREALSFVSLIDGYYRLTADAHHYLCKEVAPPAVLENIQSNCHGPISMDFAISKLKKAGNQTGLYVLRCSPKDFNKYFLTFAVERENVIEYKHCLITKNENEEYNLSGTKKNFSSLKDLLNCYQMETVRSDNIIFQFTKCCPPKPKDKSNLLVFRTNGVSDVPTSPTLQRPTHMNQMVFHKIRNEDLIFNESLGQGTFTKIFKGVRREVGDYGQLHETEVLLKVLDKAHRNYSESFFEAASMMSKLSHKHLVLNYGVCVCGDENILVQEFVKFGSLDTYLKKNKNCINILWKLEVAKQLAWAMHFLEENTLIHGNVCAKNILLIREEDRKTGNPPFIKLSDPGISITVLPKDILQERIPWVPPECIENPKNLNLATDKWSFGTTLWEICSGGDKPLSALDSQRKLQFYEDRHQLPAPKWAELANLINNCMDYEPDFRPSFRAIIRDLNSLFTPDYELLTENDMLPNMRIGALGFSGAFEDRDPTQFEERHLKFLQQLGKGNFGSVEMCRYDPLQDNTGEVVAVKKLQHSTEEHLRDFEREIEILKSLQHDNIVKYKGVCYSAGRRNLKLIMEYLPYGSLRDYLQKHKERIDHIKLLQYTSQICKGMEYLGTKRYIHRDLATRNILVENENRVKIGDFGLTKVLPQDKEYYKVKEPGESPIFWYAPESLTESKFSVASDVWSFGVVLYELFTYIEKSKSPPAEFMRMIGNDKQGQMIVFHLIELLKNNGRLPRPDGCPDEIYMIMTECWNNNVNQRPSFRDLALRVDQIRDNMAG

As usually defined, the IC50 is the concentration that gives 50% inhibition. For `CCC(=O)c1cnc(Nc2ccc(C(C)(C)N)cn2)cc1Nc1cccc(-c2ncn(C)n2)c1OC`, the IC50 lay in the range of 5 to 50 nM in assay [1] and 50 to 500 nM in assay [2].
With `CCC(=O)c1cnc(Nc2ccc(C(C)(C)NC)cn2)cc1Nc1cccc(-c2ncn(C)n2)c1OC`, the IC50 in assay [2] is 50 to 500 nM.

These data come from patent publication US20230295119A1, “SUBSTITUTED PYRIDINES FOR THE TREATMENT OF INFLAMMATORY DISEASES” (GOSSAMER BIO SERVICES, INC., priority 2020, published 2023).
